The text below walks through data of PubChem BioAssay (Tox21).

The chains behind the UniProt entries cited, without tags or fusion partners.
UniProt Q14994, whole entry: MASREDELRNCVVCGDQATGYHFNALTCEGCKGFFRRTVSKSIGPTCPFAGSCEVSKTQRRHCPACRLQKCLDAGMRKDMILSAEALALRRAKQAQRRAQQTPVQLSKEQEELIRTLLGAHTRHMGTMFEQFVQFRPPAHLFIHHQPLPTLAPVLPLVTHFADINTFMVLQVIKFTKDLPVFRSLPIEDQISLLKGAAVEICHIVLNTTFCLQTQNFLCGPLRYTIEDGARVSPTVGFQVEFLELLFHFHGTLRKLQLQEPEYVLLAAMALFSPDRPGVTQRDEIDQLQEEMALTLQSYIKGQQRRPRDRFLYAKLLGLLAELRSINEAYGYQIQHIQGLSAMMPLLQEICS
UniProt P08659, whole entry: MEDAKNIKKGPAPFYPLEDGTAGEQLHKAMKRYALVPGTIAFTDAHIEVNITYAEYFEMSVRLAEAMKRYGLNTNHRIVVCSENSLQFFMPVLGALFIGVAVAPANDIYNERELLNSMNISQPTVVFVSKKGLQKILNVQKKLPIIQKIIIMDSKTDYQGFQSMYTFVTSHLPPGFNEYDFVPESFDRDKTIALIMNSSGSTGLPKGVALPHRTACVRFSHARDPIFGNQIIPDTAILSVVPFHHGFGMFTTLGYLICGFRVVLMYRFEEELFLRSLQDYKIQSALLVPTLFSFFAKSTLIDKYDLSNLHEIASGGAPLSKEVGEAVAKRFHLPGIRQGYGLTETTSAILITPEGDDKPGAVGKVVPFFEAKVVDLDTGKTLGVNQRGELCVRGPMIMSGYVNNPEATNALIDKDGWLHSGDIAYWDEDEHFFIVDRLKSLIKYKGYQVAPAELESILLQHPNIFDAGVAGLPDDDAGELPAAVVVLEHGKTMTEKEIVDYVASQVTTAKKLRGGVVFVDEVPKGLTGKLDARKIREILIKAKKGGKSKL
UniProt P16473, whole entry: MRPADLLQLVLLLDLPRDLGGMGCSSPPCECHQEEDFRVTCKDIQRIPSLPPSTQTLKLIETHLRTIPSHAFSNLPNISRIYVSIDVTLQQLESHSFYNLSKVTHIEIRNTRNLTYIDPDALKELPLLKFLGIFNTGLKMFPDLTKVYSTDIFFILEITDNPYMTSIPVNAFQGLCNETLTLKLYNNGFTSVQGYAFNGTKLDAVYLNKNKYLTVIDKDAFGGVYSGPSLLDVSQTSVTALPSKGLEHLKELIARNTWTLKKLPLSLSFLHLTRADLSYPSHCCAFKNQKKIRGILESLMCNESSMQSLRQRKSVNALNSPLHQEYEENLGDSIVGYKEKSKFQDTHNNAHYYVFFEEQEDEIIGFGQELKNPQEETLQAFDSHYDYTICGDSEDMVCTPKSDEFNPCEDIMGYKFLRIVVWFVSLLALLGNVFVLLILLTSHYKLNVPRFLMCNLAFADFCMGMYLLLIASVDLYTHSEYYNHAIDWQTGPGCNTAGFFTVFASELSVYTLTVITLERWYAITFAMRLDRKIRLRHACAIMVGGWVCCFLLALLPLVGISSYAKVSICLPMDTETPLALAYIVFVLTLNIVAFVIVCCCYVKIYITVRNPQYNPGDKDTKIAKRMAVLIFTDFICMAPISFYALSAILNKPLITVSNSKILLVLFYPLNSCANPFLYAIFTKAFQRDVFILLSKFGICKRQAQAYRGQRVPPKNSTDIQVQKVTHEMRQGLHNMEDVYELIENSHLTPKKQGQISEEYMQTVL

Structures are written as SMILES. Values joined by “and” are separate entries in the source; they are usually repeats but may differ in a detail not shown here. Identical values can stand only once. The entries are a selection whose mix differs from that of the whole data set. Results filed as inconclusive are left out. Where a structure was tested more than once in an assay, its records may differ in their call. Active and inactive are the calls of the source. Unless noted, the call rests on the fitted dose curve; in most records, active means well fitted curve in the direction sought with a large enough effect in the repeat runs; inconclusive means weak or mixed curves; inactive means no such curve, though single readings can be large; an effect the other way counts as inactive or inconclusive.

Assay [1] can be described thus: qHTS assay to identify small molecule antagonists of the estrogen related receptor (ERR) signaling pathway from Tox21 library - cell viability counter screen (AID 1224834). Further: nearly all actives have a fitted effect of over 30% in size. The note with it: ERR reporter cells viability, CellTiter-Fluor, 17.5 h; at 92.4 µM (top of the series). A digest of the protocol: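 ERR reporter cells were plated 6 h before compound addition, then exposed to test compounds in DMSO for 17.5 h at 37 C. Viability was read as CellTiter-Fluor fluorescence after a 30-minute incubation at 37 C.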
A general note: In qHTS, concentration-response curves come from the screen itself.

Assay [2] in a line: qHTS assay to identify small molecule agonists of the constitutive androstane receptor (CAR) signaling pathway - cell viability counter screen (AID 1224836). Further: nearly all actives have a fitted effect of over 45% in size. The note with it: HepG2-CYP2B6-hCAR viability, CellTiter-Fluor, 23 h; at 92.4 µM (top of the series); PK11195 added to every well. In outline: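 Double-stable HepG2 hepatoma cells (hCAR plus CYP2B6-2.2kb) are treated for 23 h at 37 C with test compounds in 15-point concentration series. PK11195 at 0.75 uM final is co-added. Cell viability is quantified by CellTiter-Fluor.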

Assay [3] in a line: qHTS assay to identify small molecule antagonists of the constitutive androstane receptor (CAR) signaling pathway - cell viability counter screen (AID 1224837). Further: nearly all actives have a fitted effect of over 45% in size. The note with it: HepG2-CYP2B6-hCAR viability, CellTiter-Fluor, 23 h, co-treated with 50 nM CITCO; at 92.4 µM (top of the series) unless noted. In outline: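 HepG2 cells stably expressing hCAR and a CYP2B6-2.2kb reporter were plated and pre-incubated 4 hr at 37 C/5% CO2, then given compounds at 15 concentrations plus 50 nM CITCO (final). After 23 hr, viability was read by CellTiter-Fluor fluorescence.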

For assay [4], the target named is Nuclear receptor subfamily 1 group I member 3 (Homo sapiens) (UniProt Q14994). The assay is described as follows: qHTS assay to identify small molecule antagonists of the constitutive androstane receptor (CAR) signaling pathway (AID 1224838). Further: nearly all actives have a fitted effect of over 40% in size. The note with it: HepG2-CYP2B6-hCAR luciferase, CITCO-stimulated, 24 h; at 92.4 µM (top of the series).
Assay [5] is described as follows: qHTS assay to identify small molecule antagonists of the estrogen related receptor signaling pathway with the pleiotropic PPARgamma coactivator (PGC) from Tox21 10K library (AID 1224841; call rule not given here; further: actives are mostly falling curves and most rising ones were filed inactive; nearly all actives have a fitted effect of over 50% in size; further: potency means the concentration at half of the fitted maximal effect).
Assay [6] in a line: qHTS assay to identify small molecule agonists of the estrogen related receptor signaling pathway with the pleiotropic PPARgamma coactivator (PGC) from Tox21 10K library (AID 1224842). Further: nearly all actives have a fitted effect of over 15% in size. The note with it: PGC/ERR reporter cell line, luciferase ONE-Glo, 18 h; at 92.4 µM (top of the series). A digest of the protocol:
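PGC/ERR reporter cell line, 2,000 cells per well, incubated 6 h at 37 C before 23 nL compound in DMSO was added. After 18 h at 37 C, One-Glo luminescence read following 30 min at room temperature.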

Assay [7] in a line: qHTS assay to identify small molecule agonists of H2AX - cell viability counter screen (AID 1224847; calls by dose curve;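 further: wild-type CHO-K1 cells; top concentration of the series differs between compounds; nearly all actives have a fitted effect of over 30% in size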). The note with it: CHO-K1 viability, CellTiter-Glo luminescence, 3 h; at 154 µM (top of the series) unless noted. In outline:
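For this counter screen, overnight-attached CHO-K1 cells received test compounds (15 concentrations, 0.76% DMSO final); 3 hr later at 37C, CellTiter-Glo reagent was added and luminescence recorded after 30 min at room temperature.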

Assay [8] in a line: qHTS assay to identify small molecule antagonists of the estrogen related receptor (ERR) signaling pathway from Tox21 library (AID 1224848). Further: nearly all actives have a fitted effect of over 50% in size. In outline: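 Luminescent reporter read-out (ONE-Glo) from NTP's ERR cell line after 18 h treatment at 37 C with DMSO-dissolved Tox21 compounds; cells pre-plated 6 h beforehand at 2,000 per well.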
Assay [9] in a line: qHTS assay to identify small molecule agonists of the estrogen related receptor (ERR) signaling pathway from Tox21 library (AID 1224849; calls by dose curve; further: nearly all actives have a fitted effect of over 15% in size). The settings on record: ERR reporter cell line, ONE-Glo luciferase, 18 h; at 92.4 µM (top of the series). In outline: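 ERR reporter cell line (NTP) seeded, rested 6 h at 37 C/5% CO2, then pinned with Tox21 compounds in DMSO. After 18 h at 37 C, ONE-Glo luciferase luminescence was read following 30 min at room temperature.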

Assay [10] is described as follows: qHTS RealTime-Glo MT Cell Viability Assay in HepG2 cells - 24 hour (AID 1224867). Further: nearly all actives have a fitted effect of over 50% in size. The settings on record: RealTime-Glo luminescence, at 76.8 µM (top of the series). In outline: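 Viability was tracked continuously by NanoLuc luminescence from prosubstrate reduced by living HepG2 cells, at successive time points over 40 h of compound exposure. Cells with reagent were preincubated 5 h at 37 °C before compound addition.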

Assay [11] can be described thus: A CellTox Green Cytotoxicity Assay to monitor cytotoxicity in HEK293 cells - 0 hour (AID 1224869). Further: nearly all actives have a fitted effect of over 50% in size. Further: potency means the concentration at half of the fitted maximal effect. A digest of the protocol:
(§1)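 HEK293 cells premixed with CellTox Green dye were seeded at 600 cells/well and left 5 h at 37 C/5% CO2 before pin transfer of 23 nL compound in DMSO. Fluorescence from dye bound to dead-cell DNA was read during 40 h treatment.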

The nature of assay [12]: qHTS RealTime-Glo MT Cell Viability Assay in HepG2 cells - 8 hour (AID 1224873). Further: nearly all actives have a fitted effect of over 55% in size. The settings on record: RealTime-Glo luminescence; at 76.8 µM (top of the series) unless noted. In outline: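 HepG2 cells (600/well) mixed with RealTime-Glo MT reagent, settled 5 h at 37 C/5% CO2 before compound addition. Nonlytic NanoLuc luminescence from viable-cell prosubstrate reduction read repeatedly during 40 h treatment at 37 C.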

Assay [13] deals with Luciferin 4-monooxygenase (Photinus pyralis) (UniProt P08659). The assay can be described thus: qHTS assay to identify small molecule inhibitors of firefly luciferase (AID 1224835). Further: nearly all actives have a fitted effect of over 25% in size. In outline: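 Biochemical qHTS: compounds run as interplate titrations against purified firefly enzyme, with D-luciferin and ATP each at its KM concentration. Light output recorded by CCD imaging.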

In assay [14] the target is Nuclear receptor subfamily 1 group I member 3 (Homo sapiens) (UniProt Q14994). The assay can be described thus: qHTS assay to identify small molecule agonists of the constitutive androstane receptor (CAR) signaling pathway (AID 1224839).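 Further: HepG2 cells stably carrying human CAR and a CYP2B6 luciferase reporter; nearly all actives have a fitted effect of over 15% in size.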
Assay [15] can be described thus: qHTS assay to identify small molecule antagonists of the estrogen related receptor signaling pathway with the pleiotropic PPARgamma coactivator (PGC) from Tox21 10K library - cell viability counter screen (AID 1224840; active means well fitted cell-killing curve with a large enough effect in the repeat runs, not every such curve was filed as active; further: nearly all actives have a fitted effect of over 40% in size). The note with it: PGC/ERR reporter cells viability, CellTiter-Fluor, 17.5 h; at 92.4 µM (top of the series). A digest of the protocol:
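PGC/ERR cells were seeded at 2,000 cells/well and left 6 hours at 37 C/5% CO2 before pin-tool addition of compounds in DMSO. After 17.5 hours at 37 C, CellTiter-Fluor was added and fluorescence read 30 minutes later.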

Assay [16] addresses Thyrotropin receptor (Homo sapiens) (UniProt P16473). The assay is described as follows: qHTS assay to identify small molecule agonists of the thyroid stimulating hormone receptor (TSHR) signaling pathway (AID 1224843; calls by dose curve; further: nearly all actives have a fitted effect of over 45% in size). The settings on record: TSHR-HEK293 cells, cAMP HTRF, agonist mode, 30 min; at 92.4 µM (top of the series).
Assay [17] can be described thus: qHTS assay to identify small molecule agonists of the hypoxia (HIF-1) signaling pathway - cell viability counter screen (AID 1224844; calls by dose curve; further: nearly all actives have a fitted effect of over 50% in size). The settings on record: HRE-bla ME-180 viability, CellTiter-Glo luminescence, 17 h; at 76.8 µM (top of the series) unless noted. A digest of the protocol:
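HRE-bla ME-180 cells in medium with 0.5% dialyzed FBS were preincubated 5 hrs at 37C, exposed to compounds for 17 hrs, then viability was read as CellTiter-Glo luminescence after 30 min at room temperature, in the reporter wells.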

Assay [18] can be described thus: qHTS assay to identify small molecule agonists of the hypoxia (HIF-1) signaling pathway (AID 1224846; active means well fitted activation curve with a large enough effect in the signal ratio in the repeat runs, not every such curve was filed as active; the % refers to the signal ratio). The note with it: HRE-bla ME-180 cells, beta-lactamase ratio, 17 h; at 76.8 µM (top of the series). A digest of the protocol: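 HRE-bla ME-180 cells (beta-lactamase reporter under hypoxia response element) were plated at 2,000 cells/well in medium with 0.5% dialyzed FBS, rested 5 hrs, then given compounds in DMSO for 17 hrs at 37C, 5% CO2. Reporter induction was read with CCF4-AM FRET substrate.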

Assay [19] in a line: qHTS RealTime-Glo MT Cell Viability Assay in HEK293 cells - 32 hour (AID 1224868). The settings on record: RealTime-Glo luminescence, at 76.8 µM (top of the series). A digest of the protocol: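 Viability tracked continuously by luminescence as live cells reduce a prosubstrate for NanoLuc; HEK293 cells preincubated 5 h, compound-treated at 37 C, and read at 0, 8, 16, 24, 32 and 40 h.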

A short description of assay [20]: A CellTox Green Cytotoxicity Assay to monitor cytotoxicity in HEK293 cells - 24 hour (AID 1224875). Further: nearly all actives have a fitted effect of over 45% in size. A digest of the protocol: as §1
On the % scale 0 is the no-effect control and ±100 the full control effect.

Regarding `Cc1ccc([N+](=O)[O-])c([N+](=O)[O-])c1`, the viability change, negative = cytotoxic in assay [1] is inactive: 1.43%; in [2] it was inactive: -9.67%; in assay [12], inactive: -6.21% and inactive: -15%. The activity change, negative = cytotoxicity was inactive: -8.32% in [3]; inactive: -7.39% in [7]; inactive: -1.64% and inactive: -1.86% in [10]. For the same molecule, the activity, negative = inhibition in assay [4] is inactive: -58.9% and inactive: 140%. In addition, the Potency is active: 70 µM and inactive in [5]; “inactive and active: 27.5 µM” in [11]. Further, the activation in [6] was inactive: -16.9% and inactive: -7.68%. Further, the Potency result in [8] is “inactive”. Further, the activity change, positive = activation in assay [9] was inactive: -57.8% and inactive: -14.5%.
Regarding `O=[N+]([O-])OCC(CO[N+](=O)[O-])(CO[N+](=O)[O-])CO[N+](=O)[O-]`, the viability change, negative = cytotoxic in assay [1] was inactive: -0.781%; in [2] it was inactive: 2.05%; in assay [15], inactive: 5.79%; in [12] it was inactive: 4.45%. Also, the Potency result in assay [13], in [14], in assay [5], in assay [8] and in [11] was “inactive” in each case. The activity change, negative = cytotoxicity was inactive: 0.242% in assay [3], inactive: 4.91% in assay [17], inactive: -0.0141% in assay [7] and inactive: -1.38% in assay [10]. Moreover, the activity, negative = inhibition in assay [4] is inactive: -1.72%. Also, the activation was inactive: 1.73% in assay [6], inactive: -0.879% in assay [16] and inactive: 0.0793% in [18]. In [9], the activity change, positive = activation is inactive: -4.07%. Also, in assay [19], the activity change, negative = cytotoxic was inactive: -2.51%.
For the molecule `CC(C)N(CCO)C(C)C`, the viability change, negative = cytotoxic in [1] was inactive: 0.493%; in [2], inactive: -4.12%; in [15], inactive: -0.238%; in assay [12] it was inactive: -19.6%. Further, the Potency entry in [13], in [5], in assay [8], in assay [11] and in assay [20] was “inactive” each time. Further, the activity change, negative = cytotoxicity in assay [3] is inactive: 4.02%; in assay [17], inactive: -33.4%; in [7], inactive: 1.06%; in assay [10] it was inactive: -6.42%. For the same molecule, the activation in assay [6] is inactive: -6.85%; in [16], inactive: 0.786%; in assay [18] it was inactive: -0.735%. Besides, the activity change, positive = activation in assay [9] is inactive: -4.37%. For the same molecule, the activity change, negative = cytotoxic in assay [19] is inactive: 1.15%.
